Laboratory results from the NIST ThermoML archive (doi:10.1016/j.jct.2009.06.011).

Assay: activity coefficient (dimensionless); of the first substance listed, at infinite dilution; xn = mol fraction of the nth substance listed
Conditions: 101 kPa, Liquid, Chromatography, x1 = 0

CCCCOCCCC [dibutyl ether] + CCCC[n+]1ccc(C)cc1.O=S(=O)([N-]S(=O)(=O)C(F)(F)F)C(F)(F)F
Conditions	activity coefficient
298.15 K	9.79
308.15 K	9.38
318.15 K	8.98
328.15 K	8.64
338.15 K	8.32
348.15 K	8.02
358.15 K	7.76
368.15 K	7.52
